Measured values as given in US11208497B2, “Antibodies comprising C-terminal light chain polypeptide extensions and conjugates and methods of use thereof” (ZYMEWORKS INC., priority 2013, dated 2021).

Assay: Native (non-denaturing) size exclusion chromatography of antibodies
Format: physicochemical
Conditions: non-denaturing SEC, unconjugated antibody

## trastuzumab: parental anti-HER2 antibody (4D5 humanized variant 8), control
  protein sample in the monomeric state: 99.36%
